The numbers were not newly measured in publication PMC5105194, which cites them from elsewhere.

pKd: −log10 of the molar value.

What is called pKd is −log10 of the Kd, conventionally taken in molar units.

The target of this data set is VPS29 (Homo sapiens) (UniProt Q9UBQ0). The experiment in a line: ITC. Particulars: cited from earlier work.

VPS35 (from UniProt Q96QK1): the pKd was 6.70.
